We go through 2 substances from US20250288697A1.

Assay [1] addresses recombinant rat TNFα (rat) (UniProt P16599). The assay can be described thus: SPR (Biacore T200), antibody captured through Fc, TNFα as analyte, 25 C; ka and kd ND.
Another assay has as its target Rabbit TNFα (rabbit) (UniProt P04924). Described as above.
In assay [2] the target is transmembrane TNFα on CHO/DG44-tm TNFα cells. The assay can be described thus: cell-based or functional assay.
A further assay addresses Porcine TNFα (porcine) (UniProt P23563). The assay can be described thus: SPR (Biacore T200), antibody captured through Fc, TNFα as analyte, 25 C.
A further assay has as its target Canine TNFα (canine) (UniProt P51742). The description is as above.
Another assay has as its target Macaque TNFα (macaque) (UniProt P48094). The description is as above.
The target in assay [3] is transmembrane TNFα on CHO/DG44-tm TNFα cells. As to the kind of experiment: cell-based or functional assay. The source holds these as a separate data set.

Like-named read-outs stand apart in the source and are kept apart here.

For the substance “Adalimumab (commercial adalimumab antibody, HUMIRA)”, the Kd in assay [1] is 681 nM. For the same substance, the Kd in the assay with Rabbit TNFα (rabbit) came out at 528 nM. The substance also had a CDC: EC50 in assay [2] of 0.44 µg/mL. For the same substance, the Kd with Porcine TNFα (porcine) came out at 2.17 nM. In addition, the Kd with Canine TNFα (canine) was determined as 1.49 nM. For the same substance, in the assay with Macaque TNFα (macaque), the Kd stood at 0.772 nM. Further, in assay [3], the ADCC, % target cell lysis: Bottom (% target cell lysis) was -2.72; the ADCC, % target cell lysis: Span (% target cell lysis) worked out at 49.5; the ADCC, % target cell lysis: Top (% target cell lysis) turned out to be 46.7; the ADCC: EC50 worked out at 0.0129 µg/mL. Moreover, in assay [3], the ADCC: LogEC50 is -1.89; the CDC, % target cell lysis: Span (% target cell lysis) came out at 92.1; the CDC, % target cell lysis: Top (% target cell lysis) came to 96.7; the CDC: EC50 turned out to be 0.758 µg/mL. Moreover, the CDC: LogEC50 in assay [3] is -0.12.

In the case of “Vectorized adalimumab IgG (full-length adalimumab expressed from pAAV.CAG.adalimumab.IgG / AAV8.CAG.adalimumab.IgG) (antibody)”, the equilibrium dissociation constant (Kd) in assay [1] worked out at 726 nM. Moreover, the Kd with Rabbit TNFα (rabbit) was 614 nM. This substance returned a Kd with Porcine TNFα (porcine) of 2.05 nM. The Kd with Canine TNFα (canine) is 1.54 nM. This substance came in with a Kd with Macaque TNFα (macaque) of 0.72 nM. In assay [3], the ADCC, % target cell lysis: Bottom (% target cell lysis) was -3.47; the ADCC, % target cell lysis: Span (% target cell lysis) worked out at 33.7; the ADCC, % target cell lysis: Top (% target cell lysis) stood at 30.3; the ADCC: EC50 is 0.0168 µg/mL. In assay [3], this substance registered an ADCC: LogEC50 of -1.77; a CDC, % target cell lysis: Bottom (% target cell lysis) of 3.1; a CDC, % target cell lysis: Span (% target cell lysis) of 86.2; a CDC, % target cell lysis: Top (% target cell lysis) of 89.3. In addition, in assay [3], the CDC: EC50 is 8.41 µg/mL and the CDC: LogEC50 worked out at 0.925.
